# Reference: US20240252483A1, “GASTRIC RESIDENCE SYSTEMS COMPRISING BUPRENORPHINE AND NALOXONE” (Lyndra Therapeutics, Inc., priority 2021, published 2024)
# “And” between values parts separate entries of the source, which are not always exact repeats. Equal values may be shown once.
# Test: single dose pharmacokinetic study LYN-190-BUP, intravenous bolus
# Settings: 0.03 mg/kg iv, analyte buprenorphine
substance,measurement,setting,value
Buprenorphine HCL,extrapolated initial plasma concentration (CO),,17.3 ng/mL
same,AUCinf,"Mean, 4 monkeys",25.4 ng·h/mL
same,AUClast,"Mean, 4 monkeys",24.7 ng·h/mL
same,Half-life (terminal phase t½),"Mean, 4 monkeys",1.62 h
same,Tlast,individual animals,8 h
same,AUCinf,"individual animals, HCL",21.5 ng·h/mL and 28.7 ng·h/mL and 28.0 ng·h/mL and 23.6 ng·h/mL
same,AUClast,"individual animals, HCL",20.9 ng·h/mL and 28.0 ng·h/mL and 27.3 ng·h/mL and 22.5 ng·h/mL
same,Half-life,"individual animals, HCL",1.82 h and 1.47 h and 1.64 h and 1.57 h
same,Tmax,"individual animals, HCL",0.083 h and 0.250 h
same,Tlast,"listed as Mean, 4 monkeys",8 h
same,Tmax,"listed as Mean, 4 monkeys",0.083 h
